For orientation: IC50 means the point on the concentration scale where inhibition reaches its midpoint.

Protein sequences, listed by entry. Tags and fused reporters are not part of them.
UniProt P27361, whole entry: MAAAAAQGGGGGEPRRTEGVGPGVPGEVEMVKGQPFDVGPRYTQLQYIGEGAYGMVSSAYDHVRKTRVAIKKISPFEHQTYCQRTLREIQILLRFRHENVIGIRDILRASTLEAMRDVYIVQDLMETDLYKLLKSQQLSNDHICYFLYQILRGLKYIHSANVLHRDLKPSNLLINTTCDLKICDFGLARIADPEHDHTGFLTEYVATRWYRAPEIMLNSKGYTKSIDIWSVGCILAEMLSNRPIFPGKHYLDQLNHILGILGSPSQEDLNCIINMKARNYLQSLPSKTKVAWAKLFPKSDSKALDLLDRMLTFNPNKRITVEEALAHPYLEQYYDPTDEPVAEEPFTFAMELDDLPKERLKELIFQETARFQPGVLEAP
UniProt P28482, whole entry: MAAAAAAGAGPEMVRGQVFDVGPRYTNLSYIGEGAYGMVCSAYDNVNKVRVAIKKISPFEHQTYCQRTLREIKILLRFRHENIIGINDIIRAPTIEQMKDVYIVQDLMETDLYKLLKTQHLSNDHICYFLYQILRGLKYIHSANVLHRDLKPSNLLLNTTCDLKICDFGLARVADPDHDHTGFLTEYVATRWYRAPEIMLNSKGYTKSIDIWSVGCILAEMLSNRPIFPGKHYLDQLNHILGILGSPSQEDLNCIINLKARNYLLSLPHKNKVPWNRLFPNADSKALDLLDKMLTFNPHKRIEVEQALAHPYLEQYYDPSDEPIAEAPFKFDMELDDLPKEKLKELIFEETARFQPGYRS

For one molecule, IC50 results are on record in US9896445B2, “Heterocyclic inhibitors of ERK1 and ERK2 and their use in the treatment of cancer” (Asana Biosciences, LLC, priority 2015, dated 2018).

One assay has as its target ERK1 (Homo sapiens, UniProt P27361). Nature of the assay: ERK1 HTRF (biochemical) assay. To be noted: read-out: Biochemical Assay ERK1 IC50. A general note: Time-resolved FRET reads energy transfer from a long-lived donor to a nearby acceptor.
For the next assay, the target named is ERK2 (Homo sapiens, UniProt P28482). The assay is described as follows: ERK2 HTRF (biochemical) assay. The note with it: read-out: Biochemical Assay ERK2 IC50.

Consider `Cc1cnc(Nc2ccc(Oc3ccccc3)cc2)nc1-n1cnc(C(=O)NC(CO)c2cccc(Cl)c2)c1` (centres unmarked), for which the IC50 was in the range of 0.5 to 2.5 µM on ERK1 and 0.1 to 0.5 µM on ERK2.
